Biological target: Urokinase-type plasminogen activator [179-431,I214M,N322A,S371A] (Homo sapiens, UniProt P00749, I214M/N322A/S371A)
Experiment: Enzyme Assay and Determination of the Inhibition Constants

N=C(N)c1ccc2[nH]c(-c3cccc(-c4ccccc4)c3O)cc2c1 [CRA-8696]
Ki: 380 nM
